The text below walks through data of patent US5187157A, “Peptide boronic acid inhibitors of trypsin-like proteases” (Du Pont Merck Pharmaceutical Company, priority 1988, dated 1993).

The target of assay [1] is T1, Human thrombin (Homo sapiens, UniProt P00734).
T1 construct: purchased R.Q.P. Laboratories, South Bend, IN Lot HT102
Nature of the assay: Inhibition of Thrombin (Esterase Activity). The following applies: inhibitor 5 nM; activity remaining 10 to 20 min after initiation. Format: biochemical. The protocol:
In the Examples which follow, the hydrolytic activity of each enzyme is measured in both the presence and absence of inhibitor and the percent enzyme activity determined. […] A steady state is reached fairly rapidly and nears completion within 5 min. Activity is evaluated between 10-20 min after the components are mixed to insure that reaction components are at equilibrium. The lowest concentration of inhibitor tested is determined by the estimated concentration of enzyme. […] The maintenance of pseudo-first-order reaction conditions and the sensitivity of the respective assays sets the lowest limit level of inhibitor tested at 10 nM for kallikrein inhibitors and 5 nM for thrombin inhibitors.
A stock solution of thrombin was prepared in 0.010M PIPES Buffer, pH 6.0, containing 0.75 M sodium chloride. […] The initial concentration of substrate was 0.10 mM and the concentration of thrombin was 1.0 nM (based on weight).

Assay [2] addresses thrombin. As to conditions: literature; cited from earlier work.

The structures appear in SMILES notation.

For `CC(=O)N[C@H](Cc1ccccc1)C(=O)N1CCC[C@H]1C(=O)N[C@@H](CCCN=C(N)N)B(O)O.Cl` [Ac-(D)Phe-Pro-boroArg-OH, Ac-(D)Phe-Pro-boroArg-OH.HCl], the “Percent Activity” value in assay [1] stood at 3%.
For `CC1CNc2c(cccc2S(=O)(=O)N[C@@H](CCCNC(=N)N)C(=O)N2CC[C@@H](C)C[C@@H]2C(=O)O)C1` (stereo partly drawn) [(2R,4R)-4-methyl-1[N^2 -{(3-methyl-1,2,3,4-tetrahydro-8-quinolinyl)sulfonyl}-L-arginyl]-2-piperid inecarboxylic acid], the Ki (as a rule, the dissociation constant of the complex between target and ligand, obtained from inhibition or displacement) in assay [2] is 19 nM.
